The values below come from ChEMBL document CHEMBL1833902, “Design, synthesis, and biological studies of efficient multivalent melanotropin ligands: tools toward melanoma diagnosis and treatment” (J Med Chem, 2011).

Sequences of proteins named here, by UniProt entry; tags and fusion partners are left off.
UniProt P32245, whole entry: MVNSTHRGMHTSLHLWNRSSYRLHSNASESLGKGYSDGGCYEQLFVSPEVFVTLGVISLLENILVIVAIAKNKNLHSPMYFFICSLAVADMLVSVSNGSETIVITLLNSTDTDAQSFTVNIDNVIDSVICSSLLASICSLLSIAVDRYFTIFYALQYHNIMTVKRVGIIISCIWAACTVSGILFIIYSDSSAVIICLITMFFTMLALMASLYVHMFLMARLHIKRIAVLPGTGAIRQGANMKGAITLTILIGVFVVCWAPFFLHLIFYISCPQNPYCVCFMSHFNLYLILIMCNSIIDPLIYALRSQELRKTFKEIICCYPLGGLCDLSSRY

In general, IC50 refers to the concentration that inhibits the measured activity by half. Low readings indicate greater potency in that assay, high ones weaker potency in that assay.

This experiment has as its target Melanocortin receptor 4 (Homo sapiens, UniProt P32245). The experiment in a line: Displacement of Eu-NDP-alpha-MSH from human MC4R expressed in HEK293 cells after 2 hrs by time resolved fluorescence assay. In kind it is cell-based.

Regarding `CC(=O)N[C@@H](Cc1cnc[nH]1)C(=O)N[C@H](Cc1ccccc1)C(=O)N[C@@H](CCCN=C(N)N)C(=O)N[C@@H](Cc1c[nH]c2ccccc12)C(N)=O`, the IC50 came to 4.6 µM.
